PMC6961217 (Journal of Advanced Research, 2019)

Biological target: BPTF-PHD-Bromo (BPTF-PB), GST tag removed (human, UniProt Q12830 2865-3033)
Assay: ITC

For ARTKQTARKSTGGKAPR (K4 tri-methylation (me3); K9 acetylation (ac)) [H3(1–17) H3K4me3K9ac peptide], the Kd was 15.8 µM.

With ARTKQTARKSTGGKAPR (K4 tri-methylation (me3); K9 butyrylation (bu)) [H3(1–17) H3K4me3K9bu peptide] the Kd was 27.6 µM.

Work on ARTKQTARKSTGGKAPR (K4 tri-methylation (me3); K9 crotonylation (cr)) [H3(1–17) H3K4me3K9cr peptide] yielded a Kd of 17.5 µM.

ARTKQTARKSTGGKAPR (K4 tri-methylation (me3); K9 2-hydroxybutyrylation (hib)) [H3(1–17) H3K4me3K9hib peptide] showed a Kd of 14.1 µM.
